The conditions of this series: 50 μg GLIP subcutaneously with 5 units insulin; radioimmunoassay; FIG. 6 Panel E.

As to “Glucagon-like peptide 1(7-36)amide [GLIP]”, the “time for GLIP to be cleared from the blood” value is listed as “about two”.

For the origin of these results see patent US20020160008A1, “TREATMENT OF DIABETES” (priority 1994, published 2002).
